From patent US8969336B2, “Diamino heterocyclic carboxamide compound” (Astellas Pharma Inc., priority 2009, dated 2015)

Amino acid sequences for entries named in this document (tags omitted). Chains listed by the source or under a name are the forms on record and can include a tag or linker.
UniProt Q9UM73, other isoform, or with tags, fused parts or gaps: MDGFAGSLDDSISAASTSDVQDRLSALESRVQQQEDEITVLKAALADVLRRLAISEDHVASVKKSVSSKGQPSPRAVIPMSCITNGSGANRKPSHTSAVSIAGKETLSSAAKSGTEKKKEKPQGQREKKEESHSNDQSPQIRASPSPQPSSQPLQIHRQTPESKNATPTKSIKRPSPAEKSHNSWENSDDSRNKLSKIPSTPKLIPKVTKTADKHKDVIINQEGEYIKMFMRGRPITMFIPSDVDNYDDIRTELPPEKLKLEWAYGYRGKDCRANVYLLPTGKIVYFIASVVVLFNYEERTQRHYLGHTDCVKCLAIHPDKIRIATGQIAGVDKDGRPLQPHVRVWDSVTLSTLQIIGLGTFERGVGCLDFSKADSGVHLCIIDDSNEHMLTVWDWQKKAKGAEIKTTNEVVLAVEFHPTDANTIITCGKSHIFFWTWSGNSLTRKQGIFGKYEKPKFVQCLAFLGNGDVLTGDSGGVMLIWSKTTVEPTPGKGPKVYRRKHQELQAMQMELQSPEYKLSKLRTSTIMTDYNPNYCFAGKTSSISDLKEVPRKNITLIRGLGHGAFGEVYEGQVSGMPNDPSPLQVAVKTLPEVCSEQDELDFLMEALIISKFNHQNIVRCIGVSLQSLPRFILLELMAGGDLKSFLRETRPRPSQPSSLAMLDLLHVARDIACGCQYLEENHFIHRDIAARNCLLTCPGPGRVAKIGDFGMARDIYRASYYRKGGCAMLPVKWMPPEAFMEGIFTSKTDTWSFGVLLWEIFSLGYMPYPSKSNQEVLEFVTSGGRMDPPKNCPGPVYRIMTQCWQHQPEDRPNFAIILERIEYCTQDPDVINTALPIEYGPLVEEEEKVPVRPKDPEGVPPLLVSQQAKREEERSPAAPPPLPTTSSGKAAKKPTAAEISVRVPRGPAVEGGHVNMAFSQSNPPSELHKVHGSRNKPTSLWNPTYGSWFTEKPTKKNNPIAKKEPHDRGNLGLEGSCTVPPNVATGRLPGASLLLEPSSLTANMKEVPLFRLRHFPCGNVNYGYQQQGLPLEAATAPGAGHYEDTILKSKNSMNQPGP

Molecular target: EML4-ALK fusion protein v1 (Homo sapiens (Human), UniProt Q9UM73)
Assay: Inhibitory activity against the kinase activity of EML4-ALK fusion protein (HTRF KinEASE-TK)
Type: biochemical
Details: ATP 100 μM, reaction 1 hour
Text: A recombinant retrovirus was created from expression plasmid FLAG-EML4-ALKv1/pMX-iresCD8 in which cDNA for EML4-ALK fusion protein v1 was integrated, and injected into mouse lymphoid cell line BA/F3 cells. Using a magnetic bead reagent for cell separation and a purification column (anti-CD8 monoclonal antibody immobilized on magnetic beads and a MiniMACS purification column; both are products of Miltenyi Biotec Inc.), cell surface CD8-expressing cells were purified to establish EML4-ALK fusion protein v1-expressing BA/F3 cells. From the cells, EML4-ALK fusion protein v1 was purified and subjected to kinase activity evaluation. EML4-ALK fusion protein v1 was investigated for its phosphorylation activity toward a peptide substrate by using a kinase activity detection kit (HTRF KinEASE-TK; Cisbio Inc.). […] The ATP concentration used was 100 μM.

| SMILES | IC50 [nM] |
| --- | --- |
| CCc1nc(C(N)=O)c(Nc2ccc(N3CCC(N4CCN(C)CC4)CC3)c(C)c2)nc1NC1CCNCC1 [Example 534, 6-ethyl-3-({3-methyl-4-[4-(4-methylpiperazin-1-yl)piperidin-1-yl]phenyl}amino)-5-(piperidin-4-ylamino)pyrazine-2-carboxamide] | 1 |
| CCc1nc(C(N)=O)c(Nc2cccc(N3CCN(C)CC3)c2)nc1N[C@H]1CC[C@H](O)CC1 [Example 347] | 1.7 |
| CCc1nc(C(N)=O)c(Nc2cccc(S(C)(=O)=O)c2)nc1N[C@H]1CC[C@](C)(O)CC1 [Example 110] | 0.99 |
| CCc1nc(C(N)=O)c(Nc2ccc(N3CCC(N4CCN(C)CC4)CC3)c(C)c2)nc1NC1CCN(C)CC1 [Example 544] | 1.9 |
| CCc1nc(C(N)=O)c(Nc2ccc(C3CCN(C)CC3)cc2)nc1N[C@H]1CC[C@H](O)CC1 [Example 387] | 0.26 |
| COc1cc(Nc2nc(NC3CCOCC3)c(C(C)C)nc2C(N)=O)ccc1N1CCN(C)CC1 [Example 553] | 1.4 |
| CCc1nc(C(N)=O)c(Nc2ccc(N3CCOCC3)cc2)nc1N[C@H]1CC[C@H](O)CC1 [Example 357] | 17 |
